{"source": "patent US7687508B2", "about": "“Cyclic derivatives as modulators of chemokine receptor activity” (Bristol-Myers Squibb Company, priority 2006, dated 2010)", "molecular_target": "T1, human CCR2 (Homo sapiens, UniProt P41597)", "T1 sequence (P41597 1-360 isoform P41597-2)": "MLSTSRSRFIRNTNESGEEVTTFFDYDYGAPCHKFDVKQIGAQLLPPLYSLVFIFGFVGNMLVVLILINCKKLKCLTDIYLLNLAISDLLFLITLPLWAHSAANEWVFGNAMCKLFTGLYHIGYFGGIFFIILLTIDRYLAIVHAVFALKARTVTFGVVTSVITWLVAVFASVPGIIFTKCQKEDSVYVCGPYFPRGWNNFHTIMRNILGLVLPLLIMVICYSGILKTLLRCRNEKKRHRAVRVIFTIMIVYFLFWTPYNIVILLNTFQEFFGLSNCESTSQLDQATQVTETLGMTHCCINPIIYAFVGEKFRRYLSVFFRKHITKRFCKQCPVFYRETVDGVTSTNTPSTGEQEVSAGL", "assay": "CCR2 chemotaxis (MCP-1-induced, THP-1 cells)", "type": "cell-based", "design": "hPBMCs were isolated from human leukopak (Biological Specialty Inc.); endogenous in cells; host or cells: human peripheral blood mononuclear cells from leukopak (Biological Specialty Inc.)", "description": "The human CCR2 chemotaxis assay was conducted with the human monocytic cell line, THP-1. THP-1 cells were first labeled with the fluorescent dye Calcein-AM in phenol red-free, BSA-free RPMI-1640 (pH 7.4) at 37° C. for 30 minutes with gentle mixing every 15 minutes. The labeled cells were then washed and re-suspended at 1×10^5/ml in chemotaxis buffer (phenol red-free RPMI-1640, 0.1% BSA, pH 7.4). The test compound was diluted in chemotaxis buffer such that the final assay concentration ranged from 0.01 nM to 1 μM. […] To perform the assay, an equal volume of test compound dilutions was mixed with an equal volume of labeled THP-1 cells (Mixture 1), and an equal volume of test compound dilutions was mixed with an equal volume of diluted MCP-1 ligand (Mixture 2). Both mixtures were incubated independently at 37° C. for 10 minutes followed by gentle mixing. MCP-1-induced chemotaxis was then measured in a chemotaxis plate (Becton Dickinson) by placing 50 μl of Mixture 1 in the top chamber and 225 μl of Mixture 2 in the bottom chamber. The plate was covered with a lid and incubated at 37° C. for 30 minutes. 30 minutes later, the plate was read on a Cytofluor. All conditions were tested in duplicate. […] The inhibition achieved by graded concentrations of test compound was calculated as a percentage of the compound-free MCP-1 control.", "data": [{"smiles": "CN[C@@H]1CC[C@H](N2CC[C@H](Nc3ncnc4ccc(C(F)(F)F)cc34)C2=O)[C@H](NC(C)=O)C1", "note": "[Example 3, N-((1R,2S,5R)-5-(methylamino)-2-((3S)-2-oxo-3-((6-(trifluoromethyl)-4-quinazolinyl)amino)-1-pyrrolidinyl)cyclohexyl)acetamide]", "values": [{"measurement": "IC50", "result": "2.2 ± 1.59", "unit": "nM"}]}]}
